# Assay results reported in article PMC11374953, “Heteroaryl derivatives of suvorexant as OX1R selective PET ligand candidates: Cu-mediated ^18F-fluorination of boroxines, in vitro and initial in vivo evaluation” (EJNMMI Research, 2024).
# Amino acid sequences for entries named in this document (tags omitted).
# UniProt P08183, whole entry: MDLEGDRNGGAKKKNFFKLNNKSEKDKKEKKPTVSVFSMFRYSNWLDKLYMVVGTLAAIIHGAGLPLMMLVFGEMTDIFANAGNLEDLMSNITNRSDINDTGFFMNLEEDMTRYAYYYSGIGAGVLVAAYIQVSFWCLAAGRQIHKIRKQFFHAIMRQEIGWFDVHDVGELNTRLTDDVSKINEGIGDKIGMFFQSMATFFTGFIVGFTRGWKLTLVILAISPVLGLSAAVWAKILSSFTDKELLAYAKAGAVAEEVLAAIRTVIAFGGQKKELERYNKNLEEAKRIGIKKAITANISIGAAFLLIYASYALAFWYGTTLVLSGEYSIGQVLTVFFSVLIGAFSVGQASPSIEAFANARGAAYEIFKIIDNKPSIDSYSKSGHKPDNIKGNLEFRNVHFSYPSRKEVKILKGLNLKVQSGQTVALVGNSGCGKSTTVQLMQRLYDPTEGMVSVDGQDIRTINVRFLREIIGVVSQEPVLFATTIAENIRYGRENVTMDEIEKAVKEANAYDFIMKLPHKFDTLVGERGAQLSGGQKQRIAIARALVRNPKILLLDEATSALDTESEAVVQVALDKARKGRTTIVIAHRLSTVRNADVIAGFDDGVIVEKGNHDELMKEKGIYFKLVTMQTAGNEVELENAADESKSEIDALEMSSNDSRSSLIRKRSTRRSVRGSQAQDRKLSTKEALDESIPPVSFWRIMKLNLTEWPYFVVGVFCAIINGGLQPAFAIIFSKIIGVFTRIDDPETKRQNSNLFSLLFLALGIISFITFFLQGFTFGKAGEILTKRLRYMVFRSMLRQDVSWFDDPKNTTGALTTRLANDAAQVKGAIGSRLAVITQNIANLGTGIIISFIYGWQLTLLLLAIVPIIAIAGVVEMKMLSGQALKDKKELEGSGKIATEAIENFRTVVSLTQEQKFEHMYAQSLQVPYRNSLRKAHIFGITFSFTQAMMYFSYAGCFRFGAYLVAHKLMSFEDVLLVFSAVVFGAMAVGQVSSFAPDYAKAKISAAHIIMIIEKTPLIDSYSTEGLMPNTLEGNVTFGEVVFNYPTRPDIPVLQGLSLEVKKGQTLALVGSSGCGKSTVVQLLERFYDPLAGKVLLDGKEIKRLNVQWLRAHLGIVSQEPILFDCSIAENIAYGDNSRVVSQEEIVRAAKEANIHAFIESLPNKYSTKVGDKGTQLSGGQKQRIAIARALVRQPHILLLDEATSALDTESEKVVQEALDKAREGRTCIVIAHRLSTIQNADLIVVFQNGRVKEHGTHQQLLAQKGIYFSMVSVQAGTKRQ
# Target: P-gp (Homo sapiens, UniProt P08183)
# Experiment: Basolateral-to-apical transport in Caco-2 monolayers with and without the P-gp inhibitor zosuquidar
# Details: 5 µM compound, 1 µM ZSQ, 4 h, n = 8
compound,measurement,value
"C[C@H]1O[C@@H](O[C@H]2[C@@H](O)C[C@H](O[C@H]3[C@@H](O)C[C@H](O[C@H]4CC[C@@]5(C)[C@H](CC[C@@H]6[C@@H]5C[C@@H](O)[C@]5(C)[C@@H](C7=CC(=O)OC7)CC[C@]65O)C4)O[C@@H]3C)O[C@@H]2C)C[C@H](O)[C@@H]1O [digoxin, reference compound]",effect of P-gp inhibitor zosuquidar (ZSQ) on basolateral-to-apical transport,significantly inhibited
